Target: F-actin (actin purified from chicken breast) (chicken, UniProt P68139 1-377)
Assay: co-sedimentation; high-speed cosedimentation: F-actin 0, 0.5, 1, 2.5, 5 and 10 µM with 360 nM GFP-L-TOG2-S, 37°C for 15-30 min in general actin buffer; 184,000 x g, 20 min, 26°C; fraction in pellet by SDS-PAGE densitometry, Michaelis-Menten fit; without microtubules
Settings: both partners purified

B1: His-EGFP-L-TOG2-S (domain or fragment)
chain: SVDGNRPSSAASAFKVPAPKTSGNPANSARKPGSAGGPKVGGASKEGGAGAVDEDDFIKAFTDVPSIQIYSSRELEETLNKIREILSDDKHDWDQRANALKKIRSLLVAGAAQYDCFFQHLRLLDGALKLSAKDLRSQVVREACITVAHLSTVLGNKFDHGAEAIVPTLFNLVPNSAKVMATSGCAAIRFIIRHTHVPRLIPLITSNCTSKSVPVRRRSFEFLDLLLQEWQTHSLERHAAVLVETIKKGIHDADAEARVEARKTYMGLRNHFPGEAETLYNSLEPSYQKSLQTYLKSSGSVASLPQSDRSSSSSQESLNRPFSSKWSTANPSTVAGRVSAGSSKASSLPGSLQRSRSDIDVNAAAGAKAHHAAGQSVRSGRLGAGALNAGSYASLEDTSDKLDGTASEDGRVRAKLSAPLAGMGNAKADSRGRSRTKMVSQSQPGSRSGSPGRVLTTTALSTVSSGVQRVLVNSASAQKRSKIPRSQGCSREASPSRLSVARSSRIPRPSVSQGCSREASRESSRDTSPVRSFQPLASRHHSRSTGALYAPEVYGASGPGYGISQSS
modifications: N-terminal His-EGFP tag omitted. Exact limits are not printed here (cited: Aher et al. 2018). Start is set by convention at the linker preceding TOG2, after the isoform-specific N-terminus of the …
Kd: 1100 ± 600 nM
